In ChEMBL document CHEMBL1134153, “Novel bicyclic lactam inhibitors of thrombin: potency and selectivity optimization through P1 residues” (Bioorg Med Chem Lett, 2001):

Biological target: Prothrombin (Rattus norvegicus, UniProt P18292)
Assay: In vitro ability to inhibit the amidolytic activity of thrombin

- Ki: 14 nM
SMILES: N/C(=N\O)N1CCC(CNC(=O)[C@@H]2CC[C@H]3CN(S(=O)(=O)Cc4ccccc4)CC(=O)N32)CC1
